The target of the assay is Heat shock protein HSP90 (Homo sapiens, UniProt P07900+P08238).

By UniProt entry, the sequences of proteins in these tests, tags left out. Where a name states a change or a piece, a line headed by the entry shows the natural chain unless it says otherwise.
UniProt P08238: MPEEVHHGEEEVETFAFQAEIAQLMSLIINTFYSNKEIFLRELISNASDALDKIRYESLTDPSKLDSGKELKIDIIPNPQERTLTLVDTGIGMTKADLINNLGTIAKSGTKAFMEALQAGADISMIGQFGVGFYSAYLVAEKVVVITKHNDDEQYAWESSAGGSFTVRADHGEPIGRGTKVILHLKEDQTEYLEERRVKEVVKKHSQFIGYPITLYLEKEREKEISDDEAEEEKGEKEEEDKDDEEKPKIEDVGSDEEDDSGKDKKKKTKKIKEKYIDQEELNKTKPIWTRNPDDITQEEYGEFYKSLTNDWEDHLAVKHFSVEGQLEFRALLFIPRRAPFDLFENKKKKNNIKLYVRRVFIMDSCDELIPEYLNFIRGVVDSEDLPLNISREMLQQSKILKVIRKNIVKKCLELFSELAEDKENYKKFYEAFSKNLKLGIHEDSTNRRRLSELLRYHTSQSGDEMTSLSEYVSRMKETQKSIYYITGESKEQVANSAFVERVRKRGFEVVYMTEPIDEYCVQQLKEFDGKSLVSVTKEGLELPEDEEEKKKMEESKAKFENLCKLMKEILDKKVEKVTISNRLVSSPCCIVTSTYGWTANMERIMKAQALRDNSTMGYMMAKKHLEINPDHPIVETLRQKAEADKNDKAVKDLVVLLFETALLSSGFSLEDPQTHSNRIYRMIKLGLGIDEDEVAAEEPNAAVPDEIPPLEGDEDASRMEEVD

Usually Kd stands for the equilibrium constant for the complex coming apart. A higher Kd goes with a looser complex.

Regarding `Nc1nc(Cl)cc(-c2cc(OCCN3CCOCC3)c(Cl)cc2Cl)n1`, the dissociation constant Kd was 4.8 nM.

For the origin of these results see ChEMBL document CHEMBL1250514, “Fragment-based drug discovery applied to Hsp90. Discovery of two lead series with high ligand efficiency” (J Med Chem, 2010).
